Bounds are passed on as bounds.

Test [1] has as its target T1, DYRK1A (Homo sapiens, UniProt Q13627). Briefly: biochemical. The note with it: read-out: ka. Type of test: binding.
Test [2] addresses T1, DYRK1A. It is filed as binding.

For the compound `Nc1nccc(-c2cnn3ncccc23)n1` [Compound 9], the kon in test [1] amounted to 7.3e+06 M⁻¹ s⁻¹. The same measure, in the same setting: in the case of `CNc1nccc(-c2cnn3ncccc23)n1` [Compound 10] it was 6e+06 M⁻¹ s⁻¹; in that of `CN(c1nccc(-c2cnn3ncccc23)n1)C1CC1` [Compound 12, N-Cyclopropyl-N-methyl-4-pyrazolo[1,5-b]pyridazin-3-yl-pyrimidin-2-amine], 6.3e+06 M⁻¹ s⁻¹; in that of `c1cnn2ncc(-c3ccnc(N4CCC45COC5)n3)c2c1` [Compound 22, 1-(4-Pyrazolo[1,5-b]pyridazin-3-yl-pyrimidin-2-yl)-6-oxa-1-azaspiro[3.3]heptane], 3.9e+06 M⁻¹ s⁻¹. As for `CN(C)c1ncc(F)c(-c2cnn3ncccc23)n1` [Compound 95, 5-Fluoro-N,N-dimethyl-4-pyrazolo[1,5-b]pyridazin-3-yl-pyrimidin-2-amine], the kon in test [1] amounted to 4.7e+06 M⁻¹ s⁻¹. Consider `CN(C)c1ncc(Cl)c(-c2cnn3ncccc23)n1` [Compound 105], for which the kon in test [1] turned out to be 1.6e+06 M⁻¹ s⁻¹. Consider `CN(C)c1ncnc(-c2cnn3ncccc23)n1` [Compound 109], for which, in test [2] (LE = 1.4(pIC50)/nonhydrogen atoms), the LE is listed as 0.52. Besides, the LLE in test [2] (LLE = pIC50 – clog P) is 4.86. The “fold reduction in DYRK1A binding affinity” value in test [2] (relative to reference compound/matched-molecular pair 11) is more than 2 fold. Moreover, the kon in test [1] is 2.9e+06 M⁻¹ s⁻¹.

For the origin of these results see article PMC8482766 (Journal of Medicinal Chemistry, 2021).
